According to patent US20040224984A1, “Methods of treating inflammations and infections with pyridinium salts” (priority 2003, published 2004):

Legend:
[1] = tested on: male, Lewis rats
[2] = tested on: male, Lewis rats; conditions: 1 hour after carageenan, measured 4 hours later

Which “% Inhibition MPO (u/cm)” value ([1]; 3 mg/kg po) does the source give for `C[C@]12C=CC(=O)C=C1CC[C@@H]1[C@@H]2[C@@H](O)C[C@@]2(C)[C@H]1CC[C@]2(O)C(=O)CO` [Prednisolone] here?
The value was 41%.

And the “% Inhibition MPO (u/cm)” value ([1]; 12 mg/kg po)?
The value was 46%.

And the “% Inhibition Tissue swelling (edema)” value ([1]; 12 mg/kg po)?
Its value is 40%.

What about the “% Inhibition WBC” value ([2]; 50 μg/rat intrapleural) of the same compound?
The value was 23%.

What about the “% Inhibition Exudate” value ([2]; 250 μg/rat intrapleural) of the same compound?
The value was 30%.

What about the “% Inhibition Exudate” value ([2]; 1250 μg/rat intrapleural) of the same compound?
Its value is 55%.

And the “% Inhibition WBC” value ([2]; 1250 μg/rat intrapleural)?
Its value is 97%.

With `C[C@@H]1C[C@H]2[C@@H]3CCC4=CC(=O)C=C[C@]4(C)[C@@]3(F)[C@@H](O)C[C@]2(C)[C@@]1(O)C(=O)CO` [Dexamethasone] as the compound, how does the “% Inhibition Exudate” value ([2]; 2.0 μg/rat intrapleural) read?
Its value is 10%.

And the “% Inhibition WBC” value ([2]; 2.0 μg/rat intrapleural)?
Its value is 8%.

And the “% Inhibition Exudate” value ([2]; 10.0 μg/rat intrapleural)?
Its value is 41%.

And the “% Inhibition Exudate” value ([2]; 50 μg/rat intrapleural)?
The value was 83%.

For `O=C(O)c1cc(/N=N/c2ccc(S(=O)(=O)Nc3ccccn3)cc2)ccc1O` [Sulfasalazine], which “% Inhibition MPO (u/cm)” value ([1]; 100 mg/kg po) is on record?
The value was 20%.

What about the “% Inhibition Tissue swelling (edema)” value ([1]; 100 mg/kg po) of the same compound?
The value was 10%.

What about the “% Inhibition MPO (u/cm)” value ([1]; 300 mg/kg po) of the same compound?
Its value is 16%.

What about the “% Inhibition Tissue swelling (edema)” value ([1]; 300 mg/kg po) of the same compound?
Its value is 14%.

Like-named read-outs stand apart in the source and are kept apart here.
